Data reported in patent US20110053897A1 (IRM LLC, priority 2009, published 2011).

Target: Syk kinase (Homo sapiens, UniProt P43405)
Assay: Syk kinase inhibition, Caliper LabChip off-chip mobility-shift kinase assay
Conditions: read-out: Syk Enzyme IC50
Experimental: Compounds of the examples and Table 1 provided herein were assayed to measure their capacity to inhibit Syk kinase.
Compounds of the examples and Table 1 provided herein were assessed for their ability to inhibit Syk kinase by utilizing Caliper Life Sciences' proprietary LabChip™ technology. The off-chip incubation mobility-shift kinase assay uses a microfluidic chip to measure the conversion of a fluorescent peptide substrate to a phosphorylated product. The reaction mixture, from a microtiter plate well, is introduced through a capillary sipper onto the chip, where the nonphosphorylated substrate and phosphorylated product are separated by electrophoresis and detected via laser induced fluorescence. […] The phosphorylated product migrates through the chip faster than the non-phosphorylated substrate, and signals from the two forms of the peptide appear as distinct peaks. Caliper's data analysis software (HTSWA) determines peak heights, from which the ratio of product to the peak sum P/(P+S) and percent (%) conversion is calculated. This value is used to compare compound wells to control wells present on the plate, and thereby determine the % inhibition values for the compound. The formula used to calculate % inhibition is as follows, where C100% is the average % conversion of the 100% activity wells and Co% is the average % conversion of the 0% activity wells: (1−(% conversionofsample−C0%)/(C100%−C0%))*100.
Compounds (10 mM stocks in 100% DMSO) are diluted to a final concentration of 5 μM for single point inhibition experiments, and a series dilution of 10, 3, 1, 0.3, 0.1, 0.03, 0.01, 0.003, 0.001, 0.0003, 0.0001, and 0.00003 μM were made for IC50 determination. Generally, 12 μL of enzyme buffer containing purified kinase (various amount; various suppliers), 100 mM HEPES, pH 7.5, 1 mM DTT (Calbiochem, 2333153), 10 mM MgCl2 (Sigma, M-1028) or 10 mM MnCl2 (Sigma, M-1787) (assay specific), and 0.002% Brij-35 (Sigma, B4184) are added to each well. Compound and enzyme are allowed to pre-incubate for 15 minutes. 12 μL of peptide/ATP buffer containing 100 mM HEPES, pH 7.5, 1.5 μM fluorescein-labeled peptide (specific to kinase of interest), ATP (at KM apparent, Sigma, A9187), and 0.002% Brij-35 is then added to each well to initiate the reaction. The final concentration of DMSO in the well is 4%. Generally, reactions are incubated for 1 to 1.5 hours at room temperature to obtain adequate conversion of peptide to phosphorylated product in the linear range of the reaction. Reactions are terminated with the addition of 45 μL of Stop Buffer (containing 20 mM EDTA). Plates are then read on the LabChip 3000 using a 12-sipper LabChip. % conversion values and % inhibition values are obtained as provided and IC50 curves of compounds are generated using GraphPad Prism Version 4 or 5.01, or XLfit Version 4.3.2. When using GraphPad Prism, a nonlinear curve fit using the sigmoidal dose response—variable slope fit was used to graph IC50 curves and determine IC50 values and hillslopes. When using XLfit, Fit Model 205 (4-Parameter Logistic Model) is used to generate and fit the IC50 curve.

Compound	IC50 [nM]
NC(=O)c1ccc(Nc2cc3cc[nH]c(=O)c3c(Nc3ccc(N4CCOCC4)cc3)n2)nc1	850
Cc1ccc(-c2cc3c(F)c[nH]c(=O)c3c(Nc3ccc(N4CCOCC4)cc3)n2)cn1	287
Cc1ccnc(Nc2cc3ccn(C)c(=O)c3c(Nc3ccc(C4CCN(CCC#N)CC4)cc3)n2)c1	505
Nc1ncc(-c2cc3cc[nH]c(=O)c3c(NCCO)n2)cn1	86
COc1ccnc(Nc2cc3cc[nH]c(=O)c3c(NC3CC3)n2)c1	266
Cc1ccnc(Nc2cc3cc[nH]c(=O)c3c(NC[C@H]3CCCO3)n2)c1	83

Same assay, conditions: read-out: Syk Enzyme IC50; Caliper LabChip assay

Compound	IC50 [nM]
Cc1ccnc(Nc2cc3c(Cl)cn(C)c(=O)c3c(N[C@H]3CC[C@@H](O)CC3)n2)c1	113
O=c1[nH]ccc2cc(Nc3cnccn3)nc(NC3CC(F)(F)C3)c12	27
CC(C)(C)Nc1nc(Nc2cc(C(C)(O)C(F)(F)F)ccn2)cc2ccn(CCO)c(=O)c12 (stereo not shown)	131
[2H]C([2H])([2H])C(O)c1ccnc(Nc2cc3ccn(CCO)c(=O)c3c(NC(C)(C)C)n2)c1 (stereo not shown)	17
